# Source: patent US8067372B2, “Modulation of angiogenesis by A-beta peptide fragments” (Alzheimer's Institute of America, Inc., priority 2005, dated 2011)
# Columns and labels:
# [1] = tested on: Human Umbilical Vein Endothelial Cells (HUVEC); experiment: Capillary tube formation assay (HUVEC on Matrigel); assay type: cell-based; conditions: 24 hours
# Method: All in-vitro experiments were performed using primary Human Umbilical Vein Endothelial Cells (HUVEC) at passages 3-4, purchased from American Tissue Type Culture Collection (ATCC, VA). Cells were cultured in F12K Medium (ATCC, VA) supplemented with 10% fetal bovine serum (Invitrogen, CA), 0.1 mg/ml Heparin and 0.03 mg/ml endothelial cell growth supplement (Sigma-Aldrich, MO). At all times, cells were maintained in a sterile cell culture incubator at 37° C. and 5% CO2.
# HUVEC (7.5×10^4 cells/ml) in 500 μl of medium were seeded in 24-well plates, on top of a layer of Matrigel basement membrane matrix (Invitrogen, CA) in F12K medium (ATCC, VA) containing 4% serum (Invitrogen, CA), 0.1 mg/ml Heparin and 0.03 mg/ml endothelial cell growth supplement (Sigma-Aldrich, MO). Cells were incubated with peptides (or control conditions) for 24 hours. Control wells received the same volume of vehicle (DMSO) used to dilute the peptides. Network formation experiments were performed in triplicate, and at least 2 randomly chosen fields were photographed for each well using a 4× objective. Capillary length was measured using Image Pro Plus software (Media Cybernetic, Inc., MD).
# [2] = tested on: VEGF-induced angiogenesis; experiment: Rat corneal micropocket assay; assay type: in vivo; conditions: 7 days
# Method: This assay was carried out as described previously (Paris D, Townsend K, Quadros A, Humphrey J, Sun J, Brem S, Wotoczek-Obadia M, DelleDonne A, Patel N, Obregon D F, Crescentini R, Abdullah L, Coppola D, Rojiani A M, Crawford F, Sebti S M, Mullan M. (2004) Angiogenesis. 7, 75-85), using hydron pellets containing either VEGF (200 ng) alone, or in combination with different amounts of Aβ peptide fragments. The vascular growth response was measured seven days post implantation. The lengths and widths of vessel outgrowths were measured and the angiogenic index (AI) calculated using the formula L×W=AI. Rats were perfused with colloidal carbon, eyes enucleated and fixed in 10% buffered formalin. Corneas were removed under an Olympus dissecting microscope and mounted on glass slides with Crystal Mount media.
# [3] = 0.5, 2.5 and 5.0 μg with 200 ng VEGF
sequence,measurement,setting,value
VHHQKLVFFAEDVGSNK (listed as Homo sapiens) [Aβ12-28],Total length of capillary tubes (percentage of control): post hoc difference from control,"[1]; 5 and 10 μM doses, P<0.005, n≧8",significant differences
same,anti-angiogenic activity in capillary network formation,"[1]; tested at 1, 5 and 10 μM",most active
same,Angiogenic Index: post hoc effect,"[2]; 5 μg dose with 200 ng VEGF, P<0.001",significant effect
same,Angiogenic Index: ANOVA main effect of dose,[2]; [3],significant main effect
same,inhibition of VEGF-induced angiogenesis in vivo (Angiogenic Index),[2]; [3],dose dependently inhibit
